Source: patent publication US20130079364A1, “Peripheral Opioid Agonists and Peripheral Opioid Antagonists” (SIGNATURE THERAPEUTICS, INC., priority 2010, published 2013)

Assays:
[1] = Pharmacokinetics following PO administration to rats (plasma, HPLC/MS)
Description: (§1) At specified time points, blood samples were drawn, harvested for plasma via centrifugation at 5,400 rpm at 4° C. for 5 min, and 100 microliters (μl) plasma transferred from each sample into a fresh tube containing 2 μl of 50% formic acid. The tubes were vortexed for 5-10 seconds, immediately placed in dry ice and then stored in a −80° C. freezer until analysis by HPLC/MS.
as §1, with “μl” for “microliters (μl)”
as §1, with “μl” for “microliters (μl)”
as §1, with “μl” for “microliters (μl)”

[2] = rat, in vivo, iv, 10 mg/kg
[3] = Pharmacokinetics following IV administration to rats (plasma, HPLC/MS)

In the case of “N-methyl-N-(naloxone-6-enol-carbonyl-methyl amino)ethylamine-arginine-malonic acid [Compound AN-3]”, the “Compound AN-3 Cmax ± sd” value ([1]; rat plasma, PO 20 mg/kg (26 μmol/kg) Compound AN-3) is reported as 45.5 ± 13 ng/mL, the “Compound AN-3 Tmax ± sd” value ([1]; rat plasma, PO 20 mg/kg Compound AN-3) is reported as 45 ± 17.4 min and the “plasma concentration of naltrexone released as % of plasma concentration of Compound AN-3” value ([1]; rats, PO Compound AN-3) is reported as “about 0.13%”. For the same substance, the “Compound conc. in CSF” value [2] was 74.4 ng/mL, the “Compound conc. in plasma” value [2] was 57,900 ng/mL and the Plasma/CSF partitioning coefficient [2] was 778. For the same substance, the “Compound AN-3 Cmax ± sd” value ([3]; rat plasma, IV 10 mg/kg (13 μmol/kg) Compound AN-3) was 57,900 ± 4,100 ng/mL and the “plasma concentration of naltrexone as % of plasma concentration of Compound AN-3” value ([3]; rats, IV Compound AN-3) was 0.015%.
